Laboratory results from PubChem BioAssay AID2057 (The Scripps Research Institute Molecular Screening Center, 2009).
The entries are a selection whose mix differs from that of the whole data set. Some tests of the compounds listed are not included; inactive here does not mean inactive elsewhere. Active and inactive are the calls of the source.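 How the source made its calls: active means inhibition above the mean inhibition of all tested compounds plus 3 SD, set per campaign (cut at about 40% in these data); inactive means the rest.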

Protein sequences, listed by entry. Tags and fused reporters are not part of them.
UniProt Q07820, whole entry: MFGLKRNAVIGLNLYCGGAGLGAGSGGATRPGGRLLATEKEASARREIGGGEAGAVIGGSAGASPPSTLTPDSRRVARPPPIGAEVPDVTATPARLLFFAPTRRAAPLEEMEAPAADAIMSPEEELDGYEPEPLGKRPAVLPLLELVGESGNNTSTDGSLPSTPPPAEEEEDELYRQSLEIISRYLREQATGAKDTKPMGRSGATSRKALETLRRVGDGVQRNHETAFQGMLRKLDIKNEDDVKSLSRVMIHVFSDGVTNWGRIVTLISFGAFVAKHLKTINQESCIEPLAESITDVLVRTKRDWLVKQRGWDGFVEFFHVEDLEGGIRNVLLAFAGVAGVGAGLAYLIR

These compounds were tested against Induced myeloid leukemia cell differentiation protein Mcl-1 (Homo sapiens) (UniProt Q07820) (assay: inhibitors of MCL1 binding to BIM-BH3, primary screen, biochemical, fluorescence polarization (AID 2057;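 further: 0% = DMSO wells and 100% = unlabeled Bim-BH3 peptide control; higher means more loss of mP so more displacement of Bim peptide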)). Details: GST-MCL1 / FITC-Bim-BH3 fluorescence polarization; at 10.9 µM; stronger effect = higher value.

Question: Which inhibition does the source give for `Cc1ccccc1C(=O)NCC1(N2CCCCC2)CCCCC1` here?
Answer: The inhibition was inactive: -3.45%.

Question: Which inhibition does the source give for `CN(C)C1CCCC1OC(=O)C(O)(c1ccccc1)c1ccccc1` (centres undefined) here?
Answer: The inhibition was inactive: 1.43%.

Question: `CN(C)c1ccc(C(=O)NCC2(N(C)C)CCCCC2)cc1` was tested. Which inhibition did it give?
Answer: Its inhibition is inactive: 8.11%.

Question: For `COc1ccc(C(=O)NCC2(N(C)C)CCCCC2)cc1`, which inhibition is on record?
Answer: The inhibition was inactive: -4.5%.

Question: For `Cc1cc(C(=O)NCC2(N3CCCCC3)CCCCC2)ccc1[N+](=O)[O-]`, which inhibition is on record?
Answer: The inhibition was inactive: -1.33%.

Question: With `CCN1CCCC(OC(=O)C2(O)c3ccccc3C=Cc3ccccc32)C1` (centres undefined) as the compound, how does the inhibition read?
Answer: The inhibition was inactive: 11.4%.

Question: With `O=C(NCC1(N2CCCCC2)CCCCC1)c1cccc(Br)c1` as the compound, how does the inhibition read?
Answer: Its inhibition is inactive: 2.87%.

Question: Which inhibition does the source give for `C=CCN1CCN(CCOC(=O)C(O)(c2ccccc2)c2ccccc2)CC1` here?
Answer: The inhibition was inactive: -0.97%.

Question: For `O=C(NCC1(N2CCCCC2)CCCCC1)c1cc(F)c(F)cc1Cl`, which inhibition is on record?
Answer: Its inhibition is inactive: 1.72%.

Question: `CN1[C@@H]2CC[C@H]1CC(OC(=O)C(O)(c1ccccc1)c1ccccc1)C2` (some centres undefined) was tested. Which inhibition did it give?
Answer: The inhibition was inactive: 0.83%.

Question: How did the inhibition turn out when `O=C(NCC1(N2CCCCC2)CCCCC1)c1cc([N+](=O)[O-])ccc1Cl` was run?
Answer: The inhibition was inactive: 4.72%.

Question: For `Cc1ccc(C(=O)NCC2(N3CCCCC3)CCCCC2)cc1`, which inhibition is on record?
Answer: The inhibition was inactive: -5.04%.

Question: With `CCN(CC)CC(C)C(C)OC(=O)C(O)(c1ccccc1)c1ccccc1` (centres undefined) as the compound, how does the inhibition read?
Answer: The inhibition was inactive: -4.71%.

Question: How did the inhibition turn out when `COc1cc(SC)ccc1C(=O)NCC1(N(C)C)CCCCC1` was run?
Answer: The inhibition was inactive: 8.3%.

Question: Which inhibition does the source give for `CC(C)N1C(=O)CC2(CCN(CCOC(=O)C(O)(c3ccccc3)c3ccccc3)CC2)C1=O` here?
Answer: The inhibition was inactive: 8.07%.

Question: For `O=C(OC1CN2CCC1CC2)C(CO)(c1ccccc1)c1ccccc1` (centres undefined), which inhibition is on record?
Answer: Its inhibition is inactive: -0.41%.

Question: Which inhibition does the source give for `CC(C)Oc1ccc(C(=O)NCC2(N(C)C)CCCCC2)cc1` here?
Answer: Its inhibition is inactive: -1.94%.

Question: Which inhibition does the source give for `CN(C)c1cccc(C(=O)NCC2(N(C)C)CCCCC2)c1` here?
Answer: The inhibition was inactive: -0.06%.

Question: With `COc1ccc(Br)c(C(=O)NCC2(N3CCCCC3)CCCCC2)c1` as the compound, how does the inhibition read?
Answer: Its inhibition is inactive: -2.99%.

Question: With `COc1cc(C(=O)NCC2(N(C)C)CCCCC2)c([N+](=O)[O-])cc1OC` as the compound, how does the inhibition read?
Answer: Its inhibition is inactive: 5.18%.

Question: For `CN(C)C1(CNC(=O)c2ccc(Br)cc2)CCCCC1`, which inhibition is on record?
Answer: Its inhibition is inactive: -6.38%.

Question: For `O=C(NCC1(N2CCCCC2)CCCCC1)c1cccc(Cl)c1`, which inhibition is on record?
Answer: Its inhibition is inactive: 2.46%.

Question: `COc1cccc(C(=O)NCC2(N3CCCCC3)CCCCC2)c1` was tested. Which inhibition did it give?
Answer: Its inhibition is inactive: -1.72%.

Question: How did the inhibition turn out when `COc1ccc(Cl)cc1C(=O)NCC1(N(C)C)CCCCC1` was run?
Answer: The inhibition was inactive: 11.6%.
